# Earlier results, collected in patent publication US20230270635A1, “METHODS AND COMPOSITIONS FOR COSMETIC APPLICATIONS” (GLO Pharma, Inc., priority 2021, published 2023).
# Conditions: non-ionic surfactants with HLB of 10 or less, Table 1
substance,measurement,value
PEG-4 laurate,HLB,HLB = 9
